This is an account of results in article PMC8232895 (Drug Design, Development and Therapy, 2021).

By UniProt entry, the sequences of proteins in these tests, tags left out. Residues count along the entry.
UniProt P81908, whole entry: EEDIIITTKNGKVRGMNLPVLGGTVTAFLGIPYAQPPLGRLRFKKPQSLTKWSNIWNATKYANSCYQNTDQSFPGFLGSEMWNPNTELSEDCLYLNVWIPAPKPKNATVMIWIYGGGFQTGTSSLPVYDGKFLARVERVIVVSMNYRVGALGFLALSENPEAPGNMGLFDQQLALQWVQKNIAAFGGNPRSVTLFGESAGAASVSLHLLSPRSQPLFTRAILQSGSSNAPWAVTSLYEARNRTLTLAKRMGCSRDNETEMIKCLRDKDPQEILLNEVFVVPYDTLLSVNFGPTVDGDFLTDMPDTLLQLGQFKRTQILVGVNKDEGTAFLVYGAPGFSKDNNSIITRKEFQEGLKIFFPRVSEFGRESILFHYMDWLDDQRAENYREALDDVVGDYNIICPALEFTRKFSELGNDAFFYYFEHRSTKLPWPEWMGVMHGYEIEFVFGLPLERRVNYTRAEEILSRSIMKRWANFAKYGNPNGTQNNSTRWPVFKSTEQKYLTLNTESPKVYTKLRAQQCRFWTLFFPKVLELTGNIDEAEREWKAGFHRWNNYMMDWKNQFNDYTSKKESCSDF
UniProt O42275, 24-633: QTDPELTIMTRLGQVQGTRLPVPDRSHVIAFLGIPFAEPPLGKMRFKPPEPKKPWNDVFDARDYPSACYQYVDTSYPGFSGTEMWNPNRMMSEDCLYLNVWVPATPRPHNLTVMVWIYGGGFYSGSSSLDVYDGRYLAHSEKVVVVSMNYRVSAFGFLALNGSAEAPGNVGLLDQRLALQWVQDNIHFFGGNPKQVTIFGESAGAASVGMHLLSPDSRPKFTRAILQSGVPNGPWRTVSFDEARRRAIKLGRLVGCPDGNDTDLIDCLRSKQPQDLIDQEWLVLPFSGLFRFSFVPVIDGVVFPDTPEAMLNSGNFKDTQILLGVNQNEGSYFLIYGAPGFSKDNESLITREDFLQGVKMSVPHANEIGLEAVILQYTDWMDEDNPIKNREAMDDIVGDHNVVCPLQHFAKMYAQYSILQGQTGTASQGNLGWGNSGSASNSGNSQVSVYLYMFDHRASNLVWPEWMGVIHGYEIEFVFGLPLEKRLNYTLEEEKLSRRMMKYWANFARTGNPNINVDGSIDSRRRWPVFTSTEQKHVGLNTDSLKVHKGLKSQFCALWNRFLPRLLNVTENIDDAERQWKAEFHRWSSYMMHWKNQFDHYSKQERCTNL

For assay [1], the target named is butyrylcholinesterase (BChE) (Equus caballus, UniProt P81908).
Assay [2] concerns the target acetylcholinesterase (AChE) (Electrophorus electricus, UniProt O42275). Particulars: read-out: AChE IC50.

As to “({3-[(4-Methoxy-2-Nitrophenyl) Carbamoyl] Propanoyl} Zincio 3-[(2-Methoxy-5-Nitrophenyl) Carbamoyl] Propanoate Pyridine [AAZ8]”, the “BChE IC50” value in assay [1] (from dose-response curve) came out at 18 µg/mL. Moreover, the IC50 (usually the midpoint of a concentration-inhibition curve) in assay [1] (read-out: BChE IC50) was 26.5 µM; in assay [2], 25 µM.
